Data as given in the Human Domainome abundance scans (Beltran et al. 2025).
± gives the uncertainty stated by the source.

B1: Tyrosine-protein kinase ABL1, residues 64 to 120; numbered along this chain, P00519 (parent)
chain: NLFVALYDFVASGDNTLSITKGEKLRVLGYNHNGEWCEAQTKNGQGWVPSNYITPVN

Variants of: B1
Assay: abundance fitness (aPCA) (normalised: wild type 0, dead -1); higher = more abundant; growth selection in yeast, the domain comes from the species named
Settings: Homo sapiens

Variant | abundance fitness
Q45Y | -0.221 ± 0.085
G46A | -0.083 ± 0.062
G46C | -0.113 ± 0.13
G46D | -0.868 ± 0.34
G46E | -0.847 ± 0.19
G46F | -0.359 ± 0.079
G46I | -0.098 ± 0.23
G46K | -0.77 ± 0.23
G46L | -0.3 ± 0.083
G46M | -0.231 ± 0.12
G46P | -0.952 ± 0.37
G46Q | -0.681 ± 0.16
G46R | -0.415 ± 0.082
G46S | -0.747 ± 0.12
G46T | -0.541 ± 0.14
G46V | -0.251 ± 0.064
G46W | -0.263 ± 0.12
G46Y | -0.292 ± 0.14
W47A | -0.211 ± 0.078
W47C | -0.151 ± 0.11
W47D | -0.647 ± 0.27
W47E | -0.764 ± 0.13
W47F | 0.238 ± 0.13
W47G | -0.991 ± 0.14
W47H | -0.432 ± 0.099

Variant | abundance fitness
W47I | -0.21 ± 0.18
W47K | -0.416 ± 0.15
W47L | 0.054 ± 0.06
W47M | -0.196 ± 0.15
W47N | -0.132 ± 0.092
W47P | -0.318 ± 0.11
W47Q | -0.755 ± 0.22
W47R | -0.134 ± 0.087
W47S | -0.386 ± 0.076
W47V | -0.246 ± 0.073
W47Y | 0.029 ± 0.081
V48A | -0.679 ± 0.17
V48C | -0.088 ± 0.13
V48D | -0.679 ± 0.24
V48E | -0.981 ± 0.28
V48F | -0.334 ± 0.23
V48G | -1.04 ± 0.21
V48I | 0.058 ± 0.063
V48M | -0.41 ± 0.12
V48P | -1.01 ± 0.1
V48Q | -0.526 ± 0.28
V48R | -0.967 ± 0.12
V48S | -1.05 ± 0.28
V48T | -0.7 ± 0.16
V48W | -1.02 ± 0.11

Variant | abundance fitness
P49A | -0.538 ± 0.1
P49C | -0.514 ± 0.18
P49D | -0.651 ± 0.16
P49E | -0.663 ± 0.077
P49F | -0.884 ± 0.37
P49G | -1.03 ± 0.12
P49I | -0.674 ± 0.18
P49L | -0.33 ± 0.063
P49M | -0.379 ± 0.14
P49N | -0.578 ± 0.32
P49Q | -0.301 ± 0.083
P49R | -0.039 ± 0.059
P49S | -0.74 ± 0.14
P49T | -1.17 ± 0.33
P49V | -0.942 ± 0.19
P49W | -0.51 ± 0.17
P49Y | -0.706 ± 0.27
S50A | 0.035 ± 0.082
S50C | 0.181 ± 0.094
S50D | -0.395 ± 0.088
S50E | -0.309 ± 0.11
S50F | -0.1 ± 0.1
S50G | -0.109 ± 0.058
S50H | -0.024 ± 0.077
S50I | -0.493 ± 0.23

Variant | abundance fitness
S50L | -0.07 ± 0.086
S50N | 0.091 ± 0.18
S50P | -0.513 ± 0.082
S50Q | 0.152 ± 0.12
S50R | 0.121 ± 0.063
S50T | -0.08 ± 0.12
S50V | 0.056 ± 0.084
S50Y | -0.11 ± 0.15
N51A | -0.065 ± 0.064
N51C | -0.039 ± 0.11
N51D | -0.127 ± 0.1
N51E | 0.01 ± 0.092
N51F | 0.017 ± 0.17
N51G | -0.057 ± 0.057
N51H | -0.116 ± 0.17
N51I | -0.233 ± 0.27
N51K | 0.006 ± 0.075
N51L | -0.204 ± 0.069
N51M | -0.277 ± 0.083
N51P | -0.056 ± 0.1
N51Q | -0.48 ± 0.12
N51R | -0.076 ± 0.058
N51S | 0.001 ± 0.056
N51T | -0.039 ± 0.061
N51V | -0.242 ± 0.082

Variant | abundance fitness
N51W | -0.213 ± 0.078
N51Y | -0.236 ± 0.19
Y52A | 0.232 ± 0.089
Y52C | 0.049 ± 0.069
Y52D | -0.694 ± 0.21
Y52E | -0.736 ± 0.16
Y52F | 0.084 ± 0.09
Y52G | -0.023 ± 0.078
Y52H | -0.181 ± 0.12
Y52I | -0.219 ± 0.13
Y52K | -0.094 ± 0.15
Y52L | 0.033 ± 0.055
Y52M | 0.13 ± 0.11
Y52P | -0.893 ± 0.29
Y52Q | -0.305 ± 0.17
Y52R | -0.028 ± 0.06
Y52T | 0.258 ± 0.095
Y52V | 0.02 ± 0.079
Y52W | -0.204 ± 0.078
I53A | -0.332 ± 0.088
I53C | 0.044 ± 0.13
I53E | -1.11 ± 0.2
I53F | -0.567 ± 0.2
I53G | -0.999 ± 0.075
I53K | -0.684 ± 0.35

Variant | abundance fitness
I53L | 0.082 ± 0.073
I53M | -0.217 ± 0.14
I53Q | -0.892 ± 0.26
I53R | -1.03 ± 0.099
I53S | -0.999 ± 0.15
I53T | -0.077 ± 0.073
I53W | -0.974 ± 0.21
T54A | -0.068 ± 0.052
T54C | 0.063 ± 0.069
T54D | -0.476 ± 0.22
T54E | 0.157 ± 0.061
T54F | -0.517 ± 0.37
T54G | 0.094 ± 0.053
T54H | -0.004 ± 0.12
T54I | -0.099 ± 0.079
T54K | 0.127 ± 0.09
T54L | -0.193 ± 0.086
T54M | -0.013 ± 0.078
T54N | 0.027 ± 0.15
T54P | -0.862 ± 0.14
T54R | 0.03 ± 0.064
T54S | 0.017 ± 0.064
T54V | 0.118 ± 0.079
T54W | 0.175 ± 0.11
P55A | 0.005 ± 0.074

Variant | abundance fitness
P55C | -0.072 ± 0.059
P55D | 0.047 ± 0.12
P55E | -0.089 ± 0.11
P55F | -0.205 ± 0.1
P55G | -0.1 ± 0.074
P55H | -0.098 ± 0.18
P55I | -0.002 ± 0.19
P55K | -0.086 ± 0.099
P55L | -0.113 ± 0.078
P55M | 0.062 ± 0.1
P55N | 0.07 ± 0.11
P55Q | -0.189 ± 0.12
P55R | -0.04 ± 0.069
P55S | -0.192 ± 0.086
P55T | -0.015 ± 0.11
P55W | -0.587 ± 0.13
P55Y | 0.214 ± 0.17
V56A | -0.209 ± 0.088
V56C | -0.159 ± 0.088
V56D | -0.218 ± 0.15
V56E | 0.109 ± 0.083
V56F | 0.081 ± 0.13
V56G | -0.136 ± 0.056
V56H | -0.003 ± 0.11
V56I | -0.199 ± 0.14

Variant | abundance fitness
V56K | 0.139 ± 0.19
V56L | -0.126 ± 0.097
V56M | 0.192 ± 0.086
V56N | 0.028 ± 0.23
V56P | 0.209 ± 0.37
V56Q | -0.414 ± 0.4
V56R | -0.149 ± 0.088
V56S | -0.021 ± 0.08
V56Y | 0.043 ± 0.09
N57A | 0.106 ± 0.14
N57D | -0.068 ± 0.12
N57G | -0.357 ± 0.17
N57H | -0.347 ± 0.35
N57I | -0.422 ± 0.22
N57K | 0.752 ± 0.4
N57L | 0.093 ± 0.16
N57P | 0.048 ± 0.12
N57Q | 0.574 ± 0.19
N57R | -0.168 ± 0.076
N57S | 0.021 ± 0.098
N57V | 0.047 ± 0.13
N57Y | -0.111 ± 0.16
